Measured values from patent publication US9126948B2, “Pyrimidine-4,6-diamine derivatives as PI3K inhibitors” (Incyte Holdings Corporation, priority 2011, dated 2015).

Protein sequences, listed by entry. Tags and fused reporters are not part of them. Lines headed by an entry give the natural chain unless they say otherwise; changes in a name come on top.
UniProt O00329, whole entry, species assumed: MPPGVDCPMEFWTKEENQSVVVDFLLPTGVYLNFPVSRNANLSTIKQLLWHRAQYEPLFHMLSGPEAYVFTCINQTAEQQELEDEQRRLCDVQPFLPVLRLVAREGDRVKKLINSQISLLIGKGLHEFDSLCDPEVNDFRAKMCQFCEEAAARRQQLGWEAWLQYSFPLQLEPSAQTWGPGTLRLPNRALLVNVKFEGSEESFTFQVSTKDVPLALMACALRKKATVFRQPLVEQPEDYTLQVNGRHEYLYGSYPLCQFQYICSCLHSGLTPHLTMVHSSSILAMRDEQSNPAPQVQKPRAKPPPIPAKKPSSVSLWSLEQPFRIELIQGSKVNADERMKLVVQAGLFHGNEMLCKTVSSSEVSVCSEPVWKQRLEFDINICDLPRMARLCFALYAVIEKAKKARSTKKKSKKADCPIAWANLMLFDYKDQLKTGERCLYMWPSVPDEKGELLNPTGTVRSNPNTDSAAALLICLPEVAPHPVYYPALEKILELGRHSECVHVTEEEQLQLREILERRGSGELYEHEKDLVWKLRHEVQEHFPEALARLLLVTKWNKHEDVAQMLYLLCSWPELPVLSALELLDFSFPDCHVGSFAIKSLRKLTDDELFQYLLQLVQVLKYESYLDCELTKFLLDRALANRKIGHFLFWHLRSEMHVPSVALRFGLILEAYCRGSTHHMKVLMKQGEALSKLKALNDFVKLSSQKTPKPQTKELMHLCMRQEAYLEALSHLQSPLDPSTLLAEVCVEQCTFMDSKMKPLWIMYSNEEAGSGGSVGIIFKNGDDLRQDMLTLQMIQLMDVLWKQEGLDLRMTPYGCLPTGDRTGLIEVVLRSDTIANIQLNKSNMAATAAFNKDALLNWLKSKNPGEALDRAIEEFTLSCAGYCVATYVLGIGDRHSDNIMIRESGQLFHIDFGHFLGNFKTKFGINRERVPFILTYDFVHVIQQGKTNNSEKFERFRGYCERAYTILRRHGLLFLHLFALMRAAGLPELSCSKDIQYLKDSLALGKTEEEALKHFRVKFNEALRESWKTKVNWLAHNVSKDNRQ

Target: PI3Kδ (p110δ/p85α) (Homo sapiens (Human), UniProt O00329)
Assay: PI3Kδ Scintillation Proximity Assay
Type: biochemical
Conditions: 20 μM PIP2, 20 μM ATP, 4 nM PI3Kδ, 210 min; read-out: PI3Kδ SPA IC50
From the text: [γ-^33P]ATP (10 mCi/mL) was purchased from Perkin-Elmer (Waltham, Mass.). Lipid kinase substrate, D-myo-Phosphatidylinositol 4,5-bisphosphate (PtdIns(4,5)P2)D(+)-sn-1,2-di-O-octanoylglyceryl, 3-O-phospho linked (PIP2), CAS 204858-53-7, was purchased from Echelon Biosciences (Salt Lake City, Utah). PI3Kδ (p110δ/p85α) was purchased from Millipore (Bedford, Mass.). ATP, MgCl2, DTT, EDTA, MOPS and CHAPS were purchased from Sigma-Aldrich (St. Louis, Mo.). Wheat Germ Agglutinin (WGA) YSi SPA Scintillation Beads was purchased from GE healthcare life sciences (Piscataway, N.J.).
The kinase reaction was conducted in polystyrene 384-well matrix white plate from Thermo Fisher Scientific in a final volume of 25 μL. Inhibitors were first diluted serially in DMSO and added to the plate wells before the addition of other reaction components. The final concentration of DMSO in the assay was 0.5%. The PI3K assays were carried out at room temperature in 20 mM MOPS, pH 6.7, 10 mM MgCl2, 5 mM DTT and CHAPS 0.03%. Reactions were initiated by the addition of ATP, the final reaction mixture consisted of 20 μM PIP2, 20 μM ATP, 0.2 μCi [γ-^33P]ATP, 4 nM PI3Kδ. […] After the plate sealing, plates were shaken overnight at room temperature and centrifuged at 1800 rpm for 10 minutes, the radioactivity of the product was determined by scintillation counting on Topcount (Perkin-Elmer). […]

- IC50: < 0.02 µM
Compound: COc1c(C(C)Nc2ncnc(N)c2C#N)cc(Cl)c(C)c1-c1cncc(S(C)(=O)=O)c1 (stereo not shown) [Example 1, 4-Amino-6-[(1-{5-chloro-2-methoxy-4-methyl-3-[5-(methylsulfonyl)pyridin-3-yl]phenyl}ethyl)amino]pyrimidine-5-carbonitrile trifluoroacetic acid salt]

Where a name gives a salt, the structure may show the parent alone.
